Here are results for 1 molecule from publication PMC8237747 (Journal for Immunotherapy of Cancer, 2021).

The experiment addresses HZ-L-Yr-16-Fc. Put plainly: ELISA.

B1: Human CD40 (receptor)
chain: EPPTACREKQYLINSQCCSLCQPGQKLVSDCTEFTETECLPCGESEFLDTWNRETHCHQHKYCDPNLGLRVQQKGTSETDTICTCEEGWHCTSEACESCVLHRSCSPGFGVKQIATGVSDTICEPCPVGFFSNVSSAFEKCHPWTSCETKDLVVQQAGTNKTDVVCGPQDRLR
Regarding B1, the binding result is on record as “no binding”.
